Measured values taken from publication PMC11528044 (Nature Communications, 2024).

Assays:
LdCYP5122A1 [1] = target: T1, LdCYP5122A1 (Leishmania donovani, UniProt A0A3S7X0B6); experiment: biochemical
T1 sequence (A0A3S7X0B6 61-592): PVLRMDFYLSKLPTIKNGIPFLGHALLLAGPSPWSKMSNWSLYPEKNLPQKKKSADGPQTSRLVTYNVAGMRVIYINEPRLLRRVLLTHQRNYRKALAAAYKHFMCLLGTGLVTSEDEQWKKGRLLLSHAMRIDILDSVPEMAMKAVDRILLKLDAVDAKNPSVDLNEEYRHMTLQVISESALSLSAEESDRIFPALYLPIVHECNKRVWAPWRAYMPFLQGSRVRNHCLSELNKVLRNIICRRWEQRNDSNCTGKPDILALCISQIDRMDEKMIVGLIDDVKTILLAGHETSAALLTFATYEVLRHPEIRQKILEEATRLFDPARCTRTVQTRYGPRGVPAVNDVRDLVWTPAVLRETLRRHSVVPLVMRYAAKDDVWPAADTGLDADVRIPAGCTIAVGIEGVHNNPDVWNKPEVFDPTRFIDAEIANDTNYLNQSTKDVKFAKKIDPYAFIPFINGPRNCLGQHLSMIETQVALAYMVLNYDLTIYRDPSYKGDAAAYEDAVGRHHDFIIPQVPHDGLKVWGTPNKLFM

LdCYP5122A1 [2] = target: T1, LdCYP5122A1

## CC[C@@H]([C@H](C)O)n1ncn(-c2ccc(N3CCN(c4ccc(OC[C@@H]5CO[C@@](Cn6cncn6)(c6ccc(F)cc6F)C5)cc4)CC3)cc2)c1=O [Posaconazole]
LdCYP5122A1 [1]
  IC50: 1500 ± 300 nM
LdCYP5122A1 [2]
  SI (selectivity index) = IC50 against LdCYP5122A1/IC50 against LdCYP51: 25
